Experimental findings from ChEMBL document CHEMBL1125016 are described below.

Protein sequences, listed by entry. Tags and fused reporters are not part of them.
UniProt P41144, whole entry: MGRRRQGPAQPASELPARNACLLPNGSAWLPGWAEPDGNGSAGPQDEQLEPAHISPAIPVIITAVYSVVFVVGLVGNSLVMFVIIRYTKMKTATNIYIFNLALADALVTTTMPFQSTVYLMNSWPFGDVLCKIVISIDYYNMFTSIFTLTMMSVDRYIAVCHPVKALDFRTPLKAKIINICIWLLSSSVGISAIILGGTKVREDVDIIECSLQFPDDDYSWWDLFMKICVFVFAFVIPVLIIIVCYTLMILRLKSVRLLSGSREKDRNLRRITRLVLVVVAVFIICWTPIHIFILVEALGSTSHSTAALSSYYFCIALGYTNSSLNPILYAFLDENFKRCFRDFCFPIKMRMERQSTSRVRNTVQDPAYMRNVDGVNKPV

In test [1] the target is Kappa-type opioid receptor (Cavia porcellus) (UniProt P41144). Kind of test: Binding affinity against opioid receptor kappa 1 using [3H]U-69593 as a radioligand.
Test [2] shares this target. In words: Binding affinity against opioid receptor kappa 1 using with [3H]bremazocine as radioligand.

Take `CN(C(=O)CCCOc1ccc(Cl)cc1Cl)[C@H]1CCCC[C@H]1N1CCCC1`: the Control is 43.4% in test [1] and 88.2% in test [2].

Take `CN(C(=O)C1(c2ccccc2)CC1)[C@H]1CCCC[C@H]1N1CCCC1`: the Control in test [1] stood at 86.3%; in test [2], 107%.

In the case of `CN(C(=O)COc1ccc(Cl)c(Cl)c1)[C@@H]1CCCC[C@@H]1N1CCCC1`, the results for the Control in test [1] and in test [2] were 9.53% and 64.7%, respectively.

In the case of `COc1cc(CC(=O)N(C)[C@@H]2CCCC[C@@H]2N2CCCC2)cc(OC)c1OC`, the Control in test [1] is 75.8%; in test [2] it was 107%.

Regarding `COc1ccccc1CC(=O)N(C)[C@@H]1CCCC[C@@H]1N1CCCC1`, the Control in test [1] was found to be 71.2%; in test [2] it was 110%.

For `COc1cccc(CC(=O)N(C)[C@@H]2CCCC[C@@H]2N2CCCC2)c1`, the Control in test [1] was found to be 65%; in test [2] it was 107%.

As to `CN(C(=O)COc1cc(Cl)c(Cl)cc1Cl)[C@@H]1CCCC[C@@H]1N1CCCC1`, the Control came out at 6.94% in test [1] and 45.6% in test [2].

Turning to `CN(C(=O)COc1ccc(Cl)cc1Cl)[C@@H]1CCCC[C@@H]1N1CCCC1`, the Control in test [1] came out at 35.2%; in test [2] it was 95.8%.
